Antibody variant affinities, Ab-14 heavy chain, assay B

Reference: Li et al. 2023, doi:10.1038/s41467-023-39022-2. File: FLAb, binding data.

Binding partner: SARS-CoV-2 spike HR2 peptide, sequence PDVDLGDISGINAS.

Ab-14 is the parent antibody, in scFv form: VH, then the linker GGGGSGGGGSGGGGS, then VL. The light chain is unchanged in all variants.
VH: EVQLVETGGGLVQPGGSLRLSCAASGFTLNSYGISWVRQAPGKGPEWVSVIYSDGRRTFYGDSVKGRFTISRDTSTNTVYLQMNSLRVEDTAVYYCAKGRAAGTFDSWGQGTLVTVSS
VL: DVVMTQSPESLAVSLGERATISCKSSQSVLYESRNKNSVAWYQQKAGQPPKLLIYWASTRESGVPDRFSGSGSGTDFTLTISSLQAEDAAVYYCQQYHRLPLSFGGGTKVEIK

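Designed CDR sequences, proposed from the first random library and measured here. Several design methods are mixed in this list. AlphaSeq pools MATa yeast showing the antibodies with MATalpha yeast showing the peptide. Pairs that bind mate more often; barcode pairs of the diploids are counted by sequencing. The ratio of observed to expected reads was calibrated, replicate by replicate, on BCL2-family standards whose Kd was known from biolayer interferometry. There are six technical replicates.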

Variants are written as CDR1, CDR2 and CDR3 of the heavy chain (limits as in the source). Parent: GFTLNSYGIS, VIYSDGRRTFYGDSVK, GRAAGTFDS. The read-out is the apparent dissociation constant on a log10 scale (nM): the lower, the stronger. A pair that was not seen in that replicate is written "ND"; this usually means weak binding, but a binder can also be missed. A sequence measured in both rounds can read differently, since the two assays cover different ranges. Empty control strains, which show no peptide, gave a signal in 1% of pairings with all heavy chain designs; the median was 2.08 and 95% of these signals were weaker than 0.84. No background was subtracted. The authors' rule: three or more of the six replicates give a measured affinity, fewer mean a poor binder.

CDR-H1,CDR-H2,CDR-H3,"log10 Kd, replicates"
GFSLNEYGIS,VIYSDGRRTFYSDSVK,GRAAVTFDQ,ND ND ND ND ND ND
GFTLESYGIS,VIYSDGRRTFYADSVK,GKAAGTFDS,0.49 0.52 0.83 1.04 0.60 0.65
GFDLNEYGIS,VIYADGMRTVYADDVK,GNVAGTFDV,-0.51 -1.11 0.00 -1.06 -0.93 -0.88
GFDLGEYGIS,VIYADGVKQSYVDKVK,GANGVDLLV,ND ND ND ND ND ND
GFDLDEYGIS,VIYADGVRKAYADSVK,GQNAGTFDV,-0.58 -0.78 -0.62 -0.90 -0.84 -0.60
HFDLNSYGIS,VIYSDGRRTFYCDSVK,GRTAGTFDS,ND 2.29 1.38 2.14 2.27 2.78
GFDLNEYGIS,VIYADGMRTAYVDSVK,GNVAGTFDV,-0.97 0.27 -0.97 -1.47 -1.34 -0.71
GFTLNSYGIS,VIYSDGRRAFYHDSVK,GSNAGTFDS,ND ND 2.36 ND 1.76 0.98
GFNLNSYGIS,VIYSDGRRTYYGDEVK,WKAAWTFDS,ND ND ND ND ND ND
GFDLNEYGIS,VIYADGVRSYYADSVK,GENAGTFDV,-0.54 -0.41 -0.47 -0.29 -0.48 -0.29
GFTLNQYGIS,VIYSDGRFTFYSDSVK,GRAAGFFDS,ND ND ND ND 2.12 ND
GFTLQSYGIS,VIYSDGRRTAYSDSVK,GRAAGTFDS,1.80 1.11 1.39 -0.06 0.50 0.45
GFTLNSYGIS,VIYSDGRRTFYDDSVK,GQVAGTFDS,0.61 0.95 1.07 0.61 2.01 0.98
GFTLNSYGIS,VIYSDGRRTFYANSVK,GRAAFTFDS,ND ND ND ND ND ND
GFTLNSYGRS,VYYADGRRTFYGDSVK,GRAAGTNKC,ND ND ND ND ND ND
GFELNSYGIS,VIYADGRRTFYGDSVK,GRAAGTFDD,-0.08 -0.50 0.03 -0.43 -0.27 -0.19
AFDLNSYGIS,VIYSDGRRTFYGDSVK,GRQAGTFDS,1.01 0.91 1.38 2.03 1.09 1.39
GFSLNEYGIS,VIYSDGRRTFYCDSVK,GSAAGTFDR,ND ND ND ND ND ND

The remaining entries, values ahead:

"log10 Kd, replicates",CDR-H1,CDR-H2,CDR-H3
ND ND ND ND ND ND,GDDLEEYGIS,VIYADGMRTYYEDSVK,GNVNGTFFI
2.69 2.32 0.74 1.84 ND ND,GFTLNSYGIS,VIYSDGRRTFYSDSVK,GMAGGTFDN
1.02 1.83 1.14 1.45 1.13 1.14,GFTLNEYGIS,VIYSDGRRTFYQDSVK,GRFAGTFDI
-0.13 0.10 0.36 0.85 1.55 0.11,GFDINEYGIS,VIYADGRRTAYADSVK,GEAAGTFDT
1.36 0.40 ND 0.61 2.81 1.27,GFKLNSYGIS,VIYSDGRRTFYSDSVK,GQAAGTFDS
ND ND ND ND ND ND,DFTLNSYGIS,VIYSDGRRTFYDDSVK,GQLAGTFDS
ND ND ND ND ND ND,GDNLEEYGIS,VIYADGRRTSYASSVK,GAIRGTFDS
ND ND ND ND ND ND,GFTLNSYGIS,VIYSDGRRTFYADSVK,GRAALTFDS
ND ND ND ND ND ND,GFTLTSYGIT,VIYSDGRRTFYGDSVK,GRAHGTFDS
0.68 0.47 0.37 0.27 0.32 0.42,GFSLNSYGIS,VIYSDGRRTFYGDDVK,GRQAGTFDS
ND ND ND ND ND ND,GFDLNEYGVS,VIYADGHRAQYTEDVK,GTNSGAVDM
-0.67 -0.29 -0.27 -0.49 -0.59 -0.40,GFDLNEYGIS,VIYADGMRTAYADKVK,GNVAGTFDI
ND ND ND ND ND ND,GFSLNEYGIS,VIYSDGMRTFYGDSVK,GRAAGTFDS
ND ND ND ND ND ND,GFTLNQYGIS,VINSDGRRDFYSDSVK,GRAAGFFDS
0.07 0.42 -0.15 0.05 0.53 0.18,GFDLNEYGIS,VIYSDGRRTFYGDSVK,GRQAGTFDS
0.46 0.03 -0.40 -0.06 0.42 -0.08,GFDLNEYGIS,VIYADGRRTFYSDSVK,GNVGGSFDI
-0.04 -0.28 -0.54 -0.35 -0.23 0.00,GFDLNEYGIS,VIYADGVRTFYVDSVK,GENAGTFDS
ND ND ND ND ND ND,GFWLNEYGIS,VIYSDGRRTFYTDSVK,GEQAGTFDS

Top 2 of the variants detected in all replicates, tightest first:

{"CDR-H1": "GFDLNEYGIS", "CDR-H2": "VIYADGMRTAYVDSVK", "CDR-H3": "GNVAGTFDV", "log10 Kd, replicates": "-0.97 0.27 -0.97 -1.47 -1.34 -0.71"}
{"CDR-H1": "GFDLNEYGIS", "CDR-H2": "VIYADGMRTVYADDVK", "CDR-H3": "GNVAGTFDV", "log10 Kd, replicates": "-0.51 -1.11 0.00 -1.06 -0.93 -0.88"}